According to PubChem BioAssay AID797 (University of Pittsburgh Molecular Library Screening Center, 2007):
Only a part is listed here, and it is no random draw. Some results for these compounds are left out of this collection, so the calls shown say nothing about other tests. Activity calls are given as the source filed them. Rule as the data show it: active = inhibition above about 50%; inactive = the rest.

Sequences of proteins named here, by UniProt entry; tags and fusion partners are left off.
UniProt Q15139, whole entry: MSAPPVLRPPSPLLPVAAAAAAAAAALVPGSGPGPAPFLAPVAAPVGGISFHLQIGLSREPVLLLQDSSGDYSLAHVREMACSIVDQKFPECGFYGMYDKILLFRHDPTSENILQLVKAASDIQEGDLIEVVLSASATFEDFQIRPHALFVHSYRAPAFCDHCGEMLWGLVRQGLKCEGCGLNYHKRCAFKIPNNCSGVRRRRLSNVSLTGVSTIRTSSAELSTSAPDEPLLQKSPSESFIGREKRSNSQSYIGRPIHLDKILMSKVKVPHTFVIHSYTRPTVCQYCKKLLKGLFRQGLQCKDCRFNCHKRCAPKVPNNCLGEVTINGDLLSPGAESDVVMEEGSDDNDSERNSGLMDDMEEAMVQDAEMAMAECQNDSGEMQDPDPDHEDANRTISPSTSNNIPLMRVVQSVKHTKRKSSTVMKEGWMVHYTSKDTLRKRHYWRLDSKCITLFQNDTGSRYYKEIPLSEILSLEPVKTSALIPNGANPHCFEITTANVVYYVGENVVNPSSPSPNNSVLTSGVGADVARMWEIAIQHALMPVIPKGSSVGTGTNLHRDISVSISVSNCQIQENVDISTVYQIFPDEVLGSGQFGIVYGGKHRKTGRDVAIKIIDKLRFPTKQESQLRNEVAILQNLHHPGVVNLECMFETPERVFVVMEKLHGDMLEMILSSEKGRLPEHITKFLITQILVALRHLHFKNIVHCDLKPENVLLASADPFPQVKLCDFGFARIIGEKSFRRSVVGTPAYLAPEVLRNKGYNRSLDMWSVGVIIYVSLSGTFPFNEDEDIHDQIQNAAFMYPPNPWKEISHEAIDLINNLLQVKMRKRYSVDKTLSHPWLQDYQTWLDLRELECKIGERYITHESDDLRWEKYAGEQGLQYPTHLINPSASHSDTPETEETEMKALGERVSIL

What follows are compounds tested against Serine/threonine-protein kinase D1 (Homo sapiens) (UniProt Q15139) (assay: protein kinase D1 activity blockers – biochemical, fluorescence polarization (AID 797)). Details: PKD1 kinase fluorescence polarization assay; stronger effect = higher value; concentration not given here.

Structure (SMILES) | inhibition
COc1cccc(C(=O)NCC2(N3CCCCC3)CCCCC2)c1 | inactive: -1.78%
CN(C)c1cccc(C(=O)NCC2(N(C)C)CCCCC2)c1 | inactive: 5.25%
O=C(OC1CN2CCC1CC2)C(CO)(c1ccccc1)c1ccccc1 (centres undefined) | inactive: 0.9%
CC(C)N1C(=O)CC2(CCN(CCOC(=O)C(O)(c3ccccc3)c3ccccc3)CC2)C1=O | inactive: -7.31%
O=C(NCC1(N2CCCCC2)CCCCC1)c1cc([N+](=O)[O-])ccc1Cl | inactive: -0.21%
CCN1CCCC(OC(=O)C2(O)c3ccccc3C=Cc3ccccc32)C1 (centres undefined) | inactive: 9.67%
C=CCN1CCN(CCOC(=O)C(O)(c2ccccc2)c2ccccc2)CC1 | inactive: -2.52%
Cc1ccccc1C(=O)NCC1(N2CCCCC2)CCCCC1 | inactive: -4.2%
CN(C)C1CCCC1OC(=O)C(O)(c1ccccc1)c1ccccc1 (centres undefined) | inactive: -2.41%
